From BindingDB's records for 1335078

Protein sequences, listed by entry. Tags and fused reporters are not part of them.
UniProt P41143, whole entry: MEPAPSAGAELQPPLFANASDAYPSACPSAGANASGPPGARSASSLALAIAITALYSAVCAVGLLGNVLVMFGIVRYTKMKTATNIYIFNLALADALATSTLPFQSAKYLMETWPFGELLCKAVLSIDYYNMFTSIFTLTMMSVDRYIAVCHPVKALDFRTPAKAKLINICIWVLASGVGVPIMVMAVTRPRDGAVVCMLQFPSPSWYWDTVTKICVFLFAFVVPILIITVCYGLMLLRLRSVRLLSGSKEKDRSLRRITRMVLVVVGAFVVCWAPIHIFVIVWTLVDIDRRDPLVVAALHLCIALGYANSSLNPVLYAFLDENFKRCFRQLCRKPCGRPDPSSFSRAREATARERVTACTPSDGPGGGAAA

Biological target: Delta-type opioid receptor (Homo sapiens, UniProt P41143)
Experiment: ChEBML_146877

`C=C(COc1ccc2c3c1O[C@H]1[C@@]4(OC)CC[C@@]5(C[C@@H]4C(C)(C)O)[C@@H](C2)N(CC2CC2)CC[C@]315)C(=O)OC` gave an IC50 of 1.3 nM.
